Measurements as given in article PMC10278182.

Key:
[1] = molecular target: O(PA)6 nanopore sensor (adaptor O - MLL4Win - (PA)6 tether - tFhuA) (human | Escherichia coli); assay: BLI; ND-BLI: biotinylated nanodiscs (15 nM) with reconstituted nanopores loaded on streptavidin (SAX) sensors; WDR5 in solution, 1 to 18 μM; 300 mM KCl, 20 mM Tris-HCl, 1 mg/mL BSA, 1 mM TCEP, pH 7.5; 24 °C; empty nanodiscs as reference
[2] = molecular target: O(GGS)5 nanopore sensor (adaptor O - MLL4Win - (GGS)5 tether - tFhuA) (human | Escherichia coli); assay: as above
[3] = molecular target: O(GGS)4 nanopore sensor (adaptor O - MLL4Win - (GGS)4 tether - tFhuA) (human | Escherichia coli); assay: as above
[4] = molecular target: O(PA)8 nanopore sensor (adaptor O - MLL4Win - (PA)8 tether - tFhuA) (human | Escherichia coli); assay: as above
[5] = molecular target: O(PA)6 nanopore sensor (adaptor O - MLL4Win - (PA)6 tether - tFhuA) (human | Escherichia coli); assay: single-channel electrical recording (resistive-pulse technique); nanopore sensor in a planar lipid bilayer, WDR5 added to the cis side; 300 mM KCl, 20 mM Tris-HCl, 1 mM TCEP, pH 7.5; -20 mV; 23 ± 1 °C; capture durations follow a three-exponential distribution (short-, medium-, long-lived events); rate constants from linear fits of 1/τon and 1/τoff versus [WDR5]
[6] = molecular target: O(PA)3 nanopore sensor (adaptor O - MLL4Win - (PA)3 tether - tFhuA) (human | Escherichia coli); assay: as above
[7] = molecular target: O(GGS)2 nanopore sensor (adaptor O - MLL4Win - (GGS)2 tether - tFhuA) (human | Escherichia coli); assay: as above
[8] = molecular target: O(GGS)4 nanopore sensor (adaptor O - MLL4Win - (GGS)4 tether - tFhuA) (human | Escherichia coli); assay: as above

“WD40 repeat protein 5 truncation mutant lacking residues 1-22 (WDR5ΔN) (from UniProt P61964 23-334) (domain or fragment)” was tested. Which Kd [1] did it give?
Its Kd is 1100 nM.

And the koff [1]?
The koff was 0.012 s⁻¹.

And the kon [1]?
Its kon is 11000 M⁻¹ s⁻¹.

And the Kd [2]?
The Kd was 200 nM.

And the koff [2]?
Its koff is 0.0037 s⁻¹.

And the kon [2]?
Its kon is 19000 M⁻¹ s⁻¹.

And the Kd [3]?
Its Kd is 200 nM.

What about the koff [3] of the same substance?
The koff was 0.0039 s⁻¹.

What about the kon [3] of the same substance?
Its kon is 20000 M⁻¹ s⁻¹.

And the Kd [4]?
The Kd was 620 nM.

And the koff [4]?
Its koff is 0.011 s⁻¹.

And the kon [4]?
The kon was 17000 M⁻¹ s⁻¹.

What about the KD-3 (long-lived events) [5] of the same substance?
The KD-3 (long-lived events) was 103000 nM.

What about the koff-1 (short-lived events) [5] of the same substance?
Its koff-1 (short-lived events) is 170 s⁻¹.

What about the koff-2 (medium-lived events) [5] of the same substance?
Its koff-2 (medium-lived events) is 18 s⁻¹.

And the koff-3 (long-lived events) [5]?
Its koff-3 (long-lived events) is 0.8 s⁻¹.

What about the kon-1 (short-lived events) [5] of the same substance?
Its kon-1 (short-lived events) is 160000 M⁻¹ s⁻¹.

What about the kon-2 (medium-lived events) [5] of the same substance?
The kon-2 (medium-lived events) was 51000 M⁻¹ s⁻¹.

And the kon-3 (long-lived events) [5]?
The kon-3 (long-lived events) was 8000 M⁻¹ s⁻¹.

And the koff-1 (short-lived events) [6]?
Its koff-1 (short-lived events) is 220 s⁻¹.

What about the koff-2 (medium-lived events) [6] of the same substance?
Its koff-2 (medium-lived events) is 35 s⁻¹.

And the koff-3 (long-lived events) [6]?
The koff-3 (long-lived events) was 0.79 s⁻¹.

What about the kon-1 (short-lived events) [6] of the same substance?
Its kon-1 (short-lived events) is 29000 M⁻¹ s⁻¹.

And the kon-2 (medium-lived events) [6]?
The kon-2 (medium-lived events) was 10000 M⁻¹ s⁻¹.

What about the kon-3 (long-lived events) [6] of the same substance?
Its kon-3 (long-lived events) is 2000 M⁻¹ s⁻¹.

And the KD-3 (long-lived events) [7]?
Its KD-3 (long-lived events) is 21000 nM.

What about the koff of the long-lived events (printed as koff in Table 2) [7] of the same substance?
Its koff of the long-lived events (printed as koff in Table 2) is 0.78 s⁻¹.

And the koff-1 (short-lived events) [7]?
The koff-1 (short-lived events) was 88 s⁻¹.

What about the koff-2 (medium-lived events) [7] of the same substance?
The koff-2 (medium-lived events) was 9.4 s⁻¹.

And the koff-3 (long-lived events) [7]?
The koff-3 (long-lived events) was 0.77 s⁻¹.

What about the kon of the long-lived events (printed as kon in Table 2) [7] of the same substance?
Its kon of the long-lived events (printed as kon in Table 2) is 36000 M⁻¹ s⁻¹.

And the kon-1 (short-lived events) [7]?
The kon-1 (short-lived events) was 110000 M⁻¹ s⁻¹.

What about the kon-2 (medium-lived events) [7] of the same substance?
The kon-2 (medium-lived events) was 69000 M⁻¹ s⁻¹.

And the kon-3 (long-lived events) [7]?
The kon-3 (long-lived events) was 35000 M⁻¹ s⁻¹.

What about the KD-3 (long-lived events) [8] of the same substance?
The KD-3 (long-lived events) was 20000 nM.

And the koff-1 (short-lived events) [8]?
Its koff-1 (short-lived events) is 86 s⁻¹.

And the koff-2 (medium-lived events) [8]?
The koff-2 (medium-lived events) was 9.2 s⁻¹.

And the koff-3 (long-lived events) [8]?
The koff-3 (long-lived events) was 0.78 s⁻¹.

And the kon-1 (short-lived events) [8]?
The kon-1 (short-lived events) was 140000 M⁻¹ s⁻¹.

What about the kon-2 (medium-lived events) [8] of the same substance?
The kon-2 (medium-lived events) was 79000 M⁻¹ s⁻¹.

What about the kon-3 (long-lived events) [8] of the same substance?
Its kon-3 (long-lived events) is 40000 M⁻¹ s⁻¹.
